Experimental findings from US11458114B2, “Methods and compositions for enhancing synthesis secretion and transport of collagen to increase wound strength” (NORTH CELL PHARMACEUTICALS, INC., priority 2020, dated 2022) are described below.

Series [1] concerns skin laser wounds in patients. Nature of the series: Salts of pyruvate and SRF on skin laser wounds in patients: healing and irritation.
Series [2] in a line: Amount of salts delivered in the pyruvate formulations compared to amounts in human blood. Particulars: amount delivered in the pyruvate formulation.
Series [3] relates to skin laser wounds in patients. Particulars: human, in vivo.

Where two headings read alike, the source gives them in different places.

In the case of manganese pyruvate, in series [1], the irritation or toxicity result was “irritating and possibly toxic”. For the same substance, in series [2], the “delivered salt relative to blood levels” value is reported as 3,700 × blood levels.

Turning to Magnesium pyruvate, the irritation or toxicity entry in series [3] is “irritating and possibly toxic”.

As for Calcium pyruvate, the “delivered salt lower than blood levels” value in series [2] was 1.5 times lower.

With aluminum pyruvate, the irritation or toxicity result in series [1] is “irritating and possibly toxic”. In series [2], the “delivered salt relative to blood levels” value was 6100 × blood levels.
